TCR act – T cell receptor activation. primary human leukocytes, anti-CD3, IL-2 HTRF, 48 h. Potency, µM (titrated, usually from 9.22 µM), hits mostly activators. 330,000 tested, under 10 active. AID 504894
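Compounds are tested in HTS on primary human leukocytes co-incubated with a-CD3 beads for 48 hr. IL-2 output is measured by time-resolved FRET.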
miR-21 reporter – miR-21 reporter, rising signal. HeLa miR-21 FLuc reporter, luciferase, 48 h. Potency, µM (titrated, usually from 38.3 µM). 340,000 tested, under 10 active. AID 2288; active = well fitted rising curve with a large enough effect; inconclusive = small, poorly fitted or top-dose-only effect; inactive = no such curve, though single readings can be large or run the other way;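 also: miR-21 action dims this reporter so a rising signal means less miR-21 action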
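Luminescence from a firefly luciferase reporter carrying a miR-21 binding site downstream, stably expressed under a CMV promoter in HeLa cells that make miR-21 endogenously, reports miRNA modulation after 48 h compound exposure up to approximately 40uM final.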
A549 tox-1 – A549 cytotoxicity, counter-screen for Nrf2 inhibitors | A549 ARE-Fluc cells, CellTiter-Fluor viability, 18-24 h | Potency, µM (series often up to 46 µM), actives largely listed as inhibitors | actives 0.16% (n = 390,000) | AID 504648
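A549 ARE_Fluc cells in 5% FBS OPTI-MEM were exposed to compounds in concentration-response for 18-24 h at 37 deg C. Viability was read by CellTiter-Fluor fluorescence (Ex 405/Em 525) after 30 min, before the luciferase read.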
Nrf2 block – inhibitors of Nrf2 signaling | AID 504444 | Potency, µM (titrated, usually from 46 µM), most hits filed as inhibitors | actives 2.1% (n = 360,000) | A549 ARE-Fluc reporter, luciferase luminescence, 18-24 h; note: nearly all actives have a fitted effect of over 60% in size
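In this cell-based qHTS, ARE-driven firefly luciferase in A549 cells reports Nrf2 activity; the luminescent signal after BugLite lysis is the measured value, with a prior CellTiter-Fluor read for cell health.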
Nrf2 ARE act – activators of Nrf2 (ARE) signaling; AREc32 ARE-luciferase reporter (MCF7-derived line), luminescence, 24 h; actives 0.31% (n = 410,000); Potency, µM (doses to about 46.1 µM), hits mostly activators; note: nearly all actives have a fitted effect of over 65% in size
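ARE-driven firefly luciferase activity in AREc32 cells measured after a 24 hr compound exposure at 37 deg C, using Steady-Glo reagent and a 30 min room-temperature hold.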
ClpP mod – qHTS Assay for Activators of ClpP; ATP-dependent Clp protease proteolytic subunit (Bacillus subtilis (strain 168)), P80244; purified B. subtilis ClpP, FRET peptide cleavage, 20 min; Potency, µM (titrated, usually from 57.5 µM); actives 1.9% (n = 340,000); AID 651965, 2013; active = well fitted falling curve with a large enough effect; inconclusive = small, poorly fitted or top-dose-only effect; inactive = no such curve, though single readings can be large or run the other way; note: the source files actives as falling curves though it sought activators and does not explain the sign; nearly all actives have a fitted effect of over 65% in size
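FRET quenching reversal measured ClpP activation: 10 microg/mL B. subtilis ClpP at pH 8 with the FRET-FV decapeptide, read at 430 nm after 320 nm excitation. The 20-min minus 0-min signal was scaled between DMSO/no-enzyme wells and ADEP (5.8 microM final).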
FLuc enzyme inh – counter-screen for Nrf2 inhibitors: firefly luciferase enzyme inhibition. purified firefly luciferase, luminescence inhibition. actives 4% (n = 1,400). shares compounds with Nrf2 block. Potency, µM (doses to about 57.5 µM), most hits filed as inhibitors; note: nearly all actives have a fitted effect of over 65% in size
A549 tox-2 – toxic to A549 ARE-Fluc cells in Nrf2 counterscreen | actives 2% (n = 1,400) | shares compounds with Nrf2 block | A549 ARE-Fluc cells, cytotoxicity counterscreen | Potency, µM (titrated, usually from 46.1 µM), most hits filed as inhibitors;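 note: cells exposed to compounds for 18 to 24 hours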
ARE-Fluc inh – Nrf2 inhibition confirmed, A549 ARE-luciferase. shares compounds with Nrf2 block. A549 ARE-firefly luciferase reporter, luminescence. Potency, µM (series often up to 46.1 µM), usual class: inhibitors. actives 74% (n = 1,400). AID 720524; note: nearly all actives have a fitted effect of over 65% in size
Large screens that a line does not name were inactive (follow-up assays come after a bar, where they were run). In the library only some 3.7% were active in any assay of this set; here they are far more common. Unless noted, calls come from the whole dose curve; as a rule, active = well fitted curve in the direction sought with a large enough effect; inconclusive = small, poorly fitted or top-dose-only effect, or another doubt; inactive = no such curve, though single readings can be large; an effect the other way counts as inactive or inconclusive.

COc1cccc(NC(=O)C2CCN(S(=O)(=O)c3ccc4c(c3)CC(C)N4C(C)=O)CC2)c1 (centres undefined)	Nrf2 block inconclusive
CC(=O)N1c2ccc(S(=O)(=O)N3CCC(C(=O)Nc4cccc(C(F)(F)F)c4)CC3)cc2CC1C (centres undefined)	miR-21 reporter inconclusive, Nrf2 block 4.61µM | FLuc enzyme inh inactive | A549 tox-2 inactive | ARE-Fluc inh 11.6µM
CC(=O)N1c2ccc(S(=O)(=O)N3CCC(C(=O)Nc4cccc(C)n4)CC3)cc2CC1C (centres undefined)	Nrf2 block 1.46µM | FLuc enzyme inh inactive | A549 tox-2 inactive | ARE-Fluc inh 5.8µM
CCCCCn1cc2c(c1-c1ccc(Br)cc1)c(=O)n(C)c(=O)n2C	none (no result: TCR act)
COc1ccc([C@H]2CC(=O)C=C(/C=C/c3ccc(C(F)(F)F)cc3)C2)cc1	none (no result: miR-21 reporter)
CCOc1cc(C(=O)OCC(=O)Nc2ccc(F)cc2Cl)ccc1OCC(=O)N1CCOCC1	Nrf2 block inconclusive (no result: miR-21 reporter)
Cc1nc2nc(SCc3c(F)cccc3Cl)nn2c(C)c1Cc1ccccc1	ClpP mod inconclusive (no result: TCR act, Nrf2 block)
CC(C)Cn1c(C(C)C)nc([N+](=O)[O-])c1Sc1ccc(Cl)cn1	Nrf2 ARE act inconclusive
CC(C)Cn1c(C(C)C)nc([N+](=O)[O-])c1S(=O)(=O)c1ccc(F)cc1	A549 tox-1 inconclusive, Nrf2 block 9.2µM, Nrf2 ARE act 22.4µM | FLuc enzyme inh inactive | A549 tox-2 inactive | ARE-Fluc inh inactive
O=C(Nc1ccc(F)cc1)c1cc(S(=O)(=O)N2CCCCC2)cs1	Nrf2 block 8.2µM | FLuc enzyme inh inactive | A549 tox-2 inactive | ARE-Fluc inh 7.31µM
O=C(Nc1ccc(F)cc1)c1cc(S(=O)(=O)N2CCCCC2)ccc1F	none
CC(=O)c1ccc(N2CCN(S(=O)(=O)c3ccc4c(c3)CC(C)N4C(C)=O)CC2)cc1 (centres undefined)	Nrf2 block 5.8µM (no result: ClpP mod) | FLuc enzyme inh 2.69µM | A549 tox-2 inactive | ARE-Fluc inh inactive
CC(=O)N1c2ccc(S(=O)(=O)N3CCOCC3)cc2CC1C (centres undefined)	none
CC(=O)c1ccc(N2CCN(S(=O)(=O)c3ccc4c(c3)CC(C)N4C(=O)C3CC3)CC2)cc1 (centres undefined)	Nrf2 block 5.8µM | FLuc enzyme inh inactive | A549 tox-2 inactive | ARE-Fluc inh 3.66µM
Cc1cc(C[n+]2ccccc2)c2nsnc2c1	Nrf2 block inconclusive, ClpP mod inconclusive | FLuc enzyme inh inactive | A549 tox-2 inactive | ARE-Fluc inh 2.59µM
COc1cccc(C(=O)Nc2c(C(=O)NC(C)(C)C)oc3ccccc23)c1	Nrf2 block inconclusive (no result: TCR act) | FLuc enzyme inh inactive | A549 tox-2 inactive | ARE-Fluc inh inactive
CN(C)c1ccc(/C=C/c2ccc3ccccc3n2)cc1	miR-21 reporter inconclusive, A549 tox-1 inconclusive, Nrf2 block inconclusive
CN(C)c1ccc(/C=C/c2cc(/C=C/c3ccc(N(C)C)cc3)c3ccccc3n2)cc1	none (no result: TCR act, miR-21 reporter, A549 tox-1, Nrf2 block, Nrf2 ARE act) | FLuc enzyme inh 0.169µM | A549 tox-2 inactive | ARE-Fluc inh 0.581µM
CN(C)c1ccc(/C=C/c2cccc3cc4ccccc4nc23)cc1	none (no result: TCR act, miR-21 reporter, A549 tox-1, Nrf2 block, Nrf2 ARE act) | FLuc enzyme inh 19µM | A549 tox-2 inconclusive | ARE-Fluc inh 1.64µM
CN(C)c1ccc(/C=C/c2ccc3cc(N(C)C)ccc3n2)cc1	none (no result: TCR act, miR-21 reporter, A549 tox-1, Nrf2 block, Nrf2 ARE act)

Compound activity deposited in PubChem by National Center for Advancing Translational Sciences (NCATS).
